## Binding of CDR-mutated scFvs to a peptide of the spike HR2 region

Target peptide (SARS-CoV-2 spike, HR2 region): PDVDLGDISGINAS

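This is the validation round: designs drawn from the data on random variants, tested in the same kind of assay. Their group label is 14H_GP_Gibbs (GP: Gaussian process model; Gibbs: Gibbs sampling; a sequence that several methods proposed may carry one label only). In AlphaSeq, yeast of one mating type display the scFv and yeast of the other type display the target. The frequency of each diploid, read from paired DNA barcodes, reflects how well the two displayed proteins bind. A regression on co-assayed BCL2-family reference pairs converts the normalised counts of each replicate to an apparent Kd. The assay was run in six technical replicates.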

The variants keep the light chain, the linker and the frameworks of Ab-14 (scFv order VH, a (GGGGS)3 linker, VL).
VH: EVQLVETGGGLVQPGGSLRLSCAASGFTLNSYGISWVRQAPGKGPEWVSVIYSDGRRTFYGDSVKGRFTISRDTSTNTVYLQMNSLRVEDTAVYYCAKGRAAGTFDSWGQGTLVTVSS
VL: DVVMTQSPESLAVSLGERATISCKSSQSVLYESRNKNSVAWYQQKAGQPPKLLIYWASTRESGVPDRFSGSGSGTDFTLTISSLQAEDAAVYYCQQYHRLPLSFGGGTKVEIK

The parent's heavy chain CDRs are GFTLNSYGIS, VIYSDGRRTFYGDSVK, GRAAGTFDS; each variant's own CDRs replace them letter for letter.
Values are log10 of the apparent Kd in nM; lower means stronger binding.
A pair that was not seen in that replicate is written "ND"; this usually means weak binding, but a binder can also be missed.
As a blank, each scFv also met three strains without target: over all heavy chain designs, 1% of these pairings were detected, typically at 2.08 and seldom below 0.84. Also given: how often the same scFv was detected with the empty control strains, with their mean in brackets.
Values of this round are not directly comparable with the first-round values of the same sequences.
In the paper, a design with two or fewer of six values counts as a poor binder.
Of ten entries with the parent sequence, four were seen in most replicates (averages 0.34 to 2.37), three in one and three in none, so single entries are noisy.

| CDR-H1 | CDR-H2 | CDR-H3 | log10 Kd, replicates | signal with controls |
|---|---|---|---|---|
| GFTLDSYGIS | VIYSDGMRTFYADSVK | GRAAGTFDS | 1.10 0.33 0.47 0.61 0.72 1.13 | 0 of 18 |
| GFTLNEYGIS | VIYSDGWRTFYGDSVK | GRTAGTFDT | 1.48 2.84 1.06 1.52 0.37 0.74 | 0 of 18 |
| GFQLNEYGIS | VIYSDGRRTFYGDQVK | GRTAGTFSS | ND ND ND ND ND ND | 0 of 18 |
| GFDLNKYGIS | VIYSDGRRTFYGDSVK | GRQAGTFDS | 0.69 0.62 0.15 0.25 0.69 0.63 | 0 of 18 |
| MFELNSYGIS | VIYADGRRTFYGDSVK | GNAAGTFDS | 0.29 0.51 1.57 0.85 0.43 0.73 | 0 of 18 |
| GFSLNSYGIS | VIYSDGRRTFYKDSVK | GSTAGTFDS | 1.10 0.60 0.51 -0.25 1.21 0.65 | 0 of 18 |
| GFSLNEYGIS | VIYSDGRRTFYGDHVK | GRTAGTFDD | ND ND ND ND ND ND | 0 of 18 |
| GFELNSYGIS | VIYSDGRRTFYVDDVK | GRQAGTFDS | 0.61 0.14 0.40 -0.24 0.43 0.95 | 0 of 18 |
| GFSLNEYGIS | VIYSDGRRTMYWDSVK | GRTAGTFDS | ND ND ND ND ND ND | 0 of 18 |
| GFELESYGIS | VIYSDGRRTFYGDSVK | GKAAGTFDS | 1.68 0.67 0.78 1.65 1.05 1.17 | 1 of 18 (1.81) |
| GFTLNSYGIS | VIYSDGLRTFYSDSVK | GQTAGTFDS | 0.29 0.37 0.30 0.46 0.78 0.44 | 0 of 18 |
| GFSLNSYGIS | VIYADGRRTFYGDSVK | GKVAGTFDS | -0.27 0.16 -0.30 -0.54 -0.77 0.07 | 0 of 18 |
| GFSLNSYGIS | VIYSDGRRTFYGDDVK | GEAAGTFDK | 0.50 0.23 0.59 0.51 0.60 0.08 | 0 of 18 |
| GFSLNSYGIS | VIYSDGRRTFYADRVK | GEAAGTFDT | 0.15 0.39 ND 0.93 0.38 0.62 | 0 of 18 |
| GFSLNSYGIS | VIYSDGRRTFYGDRVK | GQAAGTFDT | 1.71 1.04 0.80 0.65 0.90 1.02 | 1 of 18 (3.27) |
| GFDLNEYGIS | VIYSDGRRTFYGDDVK | GEAAGTFDK | 0.48 1.45 0.63 0.40 0.67 0.80 | 1 of 18 (1.87) |
| GFSLNEYGIS | VIYSDGRRTFYHDWVK | GRTAGTFDS | ND 0.51 0.11 0.58 2.79 1.13 | 0 of 18 |
| GFELNSYGIS | VIYSDGRRTFYGDQVK | GREAGTFDS | ND 1.31 1.52 0.45 1.22 1.27 | 0 of 18 |
| GFTLNSYGIS | VIYSDGKRTFYIDRVK | GQAAGTFDT | ND ND ND ND ND ND | 1 of 18 (2.06) |
| GFSLNSYGIS | VIYSDGRRTFYGDSVK | GQEAGTFDK | 0.35 -0.04 -0.18 -0.38 -0.20 -0.07 | 1 of 18 (2.76) |
| GFDLNSYGIS | VIYSDGRRTFYVDSVK | GLNAGTFDS | 0.40 0.00 -0.34 0.14 -0.39 -0.08 | 0 of 18 |
| GKSLNSYGIS | VIYSDGRRTFYADHVK | GRTAGTFDS | ND ND ND ND 2.66 ND | 0 of 18 |
| GFNLNSYGIS | VIYSDGKRTFYVDSVK | GRQAGTFDS | 1.26 0.75 1.47 1.14 0.44 1.02 | 1 of 18 (2.02) |
| GFDLNEYGIS | VIYSDGRRTFYDDSVK | GRTAGTFDS | 0.38 0.58 0.12 0.42 0.49 0.35 | 0 of 18 |
| KFSLNDYGIS | VIYSDGRRTFYGDSVK | GWTAGTFDS | 1.04 1.78 1.34 1.48 1.57 1.57 | 0 of 18 |
| GFSLNSYGIS | VIYSDGRRTFYADDVK | GNAAGTFDT | 0.20 0.67 0.51 0.06 0.57 0.56 | 0 of 18 |
| GFDLNSYGIS | VIYSDGRRTFYQDSVK | GKAAGTFDT | 0.65 0.01 ND 0.14 -0.45 0.38 | 0 of 18 |
| GFELNEYGIS | VIYSDGRRTFYMDSVK | GRQAGTFDS | 0.31 0.24 -0.01 0.15 0.92 0.39 | 0 of 18 |
| GFTLDSYGIS | VIYSDGRRTFYADAVK | GRAAGTFDV | 0.91 0.44 0.53 0.76 0.34 0.66 | 0 of 18 |
| GFQLNSYGIS | VIYSDGRRTFYADQVK | GTAAGTFDS | 0.77 0.50 0.48 0.34 0.84 0.63 | 0 of 18 |
| GFNLNSYGIS | VIYSDGRRTFYGDAVK | GRIAGTFDS | 1.40 0.94 0.69 2.05 1.32 1.56 | 0 of 18 |
| GFCLNSYGIS | VIYSDGRRTFYSDSVK | GQTAGTFDS | ND ND ND ND ND ND | 0 of 18 |

Source: Li et al. 2023 (doi:10.1038/s41467-023-39022-2), MIT Lincoln Laboratory and A-Alpha Bio; data file from the FLAb repository.